Data from article PMC7769008 (2020).

Assays:
[1] = tested on: 45 receptors and channels; details: 10 μM; radioligand binding and functional assays
[2] = MLM incubation
HeLa cells = details: 100 μM, 3 days after treatment

Structure (SMILES): O=c1c2ccccc2n2c(=S)[nH]nc2n1CCc1ccccc1 [Compound 7, 4-Phenethyl-1-thioxo-2,4-dihydro-[1,2,4]triazolo[4,3-a]-quinazolin-5(1H)-one]
- potential off-target interactions [1]: not detected

Structure (SMILES): O=c1c2cc(F)ccc2n2c(=S)[nH]nc2n1CCc1ccccn1
- major metabolite (LC–MS/MS) [2]: glucuronidation is the major metabolite

Structure (SMILES): N#Cc1ccc(CC(=O)NCCCn2c(=O)c3cc(F)ccc3n3c(=S)[nH]nc23)cc1 [Compound 134, 2-(4-Cyanophenyl)-N-(3-(7-fluoro-5-oxo-1-thioxo-1,2-dihydro-[1,2,4]triazolo[4,3-a]quinazolin-4(5H)-yl)propyl)acetamide]
- major metabolite (LC–MS/MS) [2]: glucuronidation is the major metabolite

Structure (SMILES): CC(C)(C)OC(=O)CC[C@H](NC(=O)OC(C)(C)C)C(=O)NCCCn1c(=O)c2cc(F)ccc2n2c(=S)[nH]nc12 [Compound 103, tert-Butyl (S)-4-((tert-butoxycarbonyl)amino)-5-((3-(7-fluoro-5-oxo-1-thioxo-1,2-dihydro-[1,2,4]triazolo[4,3-a]quinazolin-4(5H)-yl)propyl)amino)-5-oxopentanoate]
- PAMPA (pH 7.4): 744 ×10⁻⁶ cm/s

Structure (SMILES): O=C(Cc1ccc(O)cc1)NCCCn1c(=O)c2cc(F)ccc2n2c(=S)[nH]nc12 [Compound 127, N-(3-(7-Fluoro-5-oxo-1-thioxo-1,2-dihydro-[1,2,4]triazolo[4,3-a]-quinazolin-4(5H)-yl)propyl)-2-(4-hydroxyphenyl)acetamide]
- potential off-target interactions [1]: not detected

Structure (SMILES): O=c1c2cc(F)ccc2n2c(=S)[nH]nc2n1CC1CC1 [Compound 79, 4-(Cyclopropylmethyl)-7-fluoro-1-thioxo-2,4-dihydro-[1,2,4]-triazolo[4,3-a]quinazolin-5(1H)-one]
- major metabolite (LC–MS/MS) [2]: glucuronidation is the major metabolite

Structure (SMILES): CCCn1c(=O)c2cccc(F)c2n2c(SC)nnc12 [Compound 145, 9-Fluoro-1-(methylthio)-4-propyl-[1,2,4]triazolo[4,3-a]-quinazolin-5(4H)-one]
- decrease of total cell population (HeLa cells): approximately 50%

Structure (SMILES): O=c1c2cc(F)ccc2n2c(=S)[nH]nc2n1CCC(F)(F)F
- major metabolite (LC–MS/MS) [2]: glucuronidation is the major metabolite

Structure (SMILES): NCCCn1c(=O)c2cc(F)ccc2n2c(=S)[nH]nc12 [Compound 68, 4-(3-Aminopropyl)-7-fluoro-1-thioxo-2,4-dihydro-[1,2,4]triazolo-[4,3-a]quinazolin-5(1H)-one]
- PAMPA (Free base): 16.8 ×10⁻⁶ cm/s
- potential off-target interactions [1]: not detected

Structure (SMILES): O=c1c2cc(N3CCOCC3)ccc2n2c(=S)[nH]nc2n1CCc1ccccc1
- major metabolite (LC–MS/MS) [2]: glucuronidation is the major metabolite

Structure (SMILES): CC(C)(C)OC(=O)CC[C@@H](NC(=O)OC(C)(C)C)C(=O)NCCCn1c(=O)c2cc(F)ccc2n2c(=S)[nH]nc12 [Compound 102, tert-Butyl (R)-4-((tert-butoxycarbonyl)amino)-5-((3-(7-fluoro-5-oxo-1-thioxo-1,2-dihydro-[1,2,4]triazolo[4,3-a]quinazolin-4(5H)-yl)propyl)amino)-5-oxopentanoate]
- PAMPA (pH 7.4): 1214 ×10⁻⁶ cm/s

Like-named read-outs stand apart in the source and are kept apart here.
